Experimental data taken from ChEMBL document CHEMBL3885861, “Open TG-GATES”.

Species: Rattus norvegicus
Experiment: Open TG-GATES - Regimen: Single
Assay type: toxicity, organism-based, Sprague-Dawley
Set-up: regimen Single, gender Male, age 6 weeks
Conditions: in vivo, po, route gavage; for PT: tissue Blood; for BUN / Ca / Cl: tissue Plasma; for LIVER: tissue Liver
[1] = 0 mg/kg, 3 h, dose level Control
[2] = 0 mg/kg, 6 h, dose level Control
[3] = 0 mg/kg, 9 h, dose level Control
[4] = 0 mg/kg, 24 h, dose level Control
[5] = 100 mg/kg, 24 h, dose level Low
[6] = 300 mg/kg, 3 h, dose level Middle
[7] = 300 mg/kg, 6 h, dose level Middle
[8] = 300 mg/kg, 9 h, dose level Middle

With `CN(C)CCC=C1c2ccccc2COc2ccccc21` [DOXEPIN] the PT [1] was 13.9 s, the BUN [1] was 10.6 mg/dL and the Ca [1] was 10.8 mg/dL. For the same compound, the Cl [1] was 104.8 meq/L, the PT [2] was 13.7 s and the BUN [2] was 8 mg/dL. It also gave a Ca [2] of 10.6 mg/dL, a Cl [2] of 106 meq/L and a PT [3] of 14.2 s. For the same compound, the BUN [3] was 8.4 mg/dL, the Ca [3] was 10.4 mg/dL and the Cl [3] was 105.8 meq/L. The PT [4] was 13.6 s, the LIVER [4] was 9.8 g and the BUN [4] was 17 mg/dL. The Ca [4] was 11 mg/dL, the PT (100 mg/kg, 3 h, dose level Low) was 13.9 s and the BUN (100 mg/kg, 3 h, dose level Low) was 9 mg/dL. The Ca (100 mg/kg, 3 h, dose level Low) was 10.9 mg/dL, the Cl (100 mg/kg, 3 h, dose level Low) was 106.8 meq/L and the PT (100 mg/kg, 6 h, dose level Low) was 14.1 s. The BUN (100 mg/kg, 6 h, dose level Low) was 7.4 mg/dL, the Ca (100 mg/kg, 6 h, dose level Low) was 10.6 mg/dL and the Cl (100 mg/kg, 6 h, dose level Low) was 107.4 meq/L. For the same compound, the PT (100 mg/kg, 9 h, dose level Low) was 14 s, the BUN (100 mg/kg, 9 h, dose level Low) was 6.8 mg/dL and the Ca (100 mg/kg, 9 h, dose level Low) was 10.4 mg/dL. The Cl (100 mg/kg, 9 h, dose level Low) was 107.4 meq/L, the PT [5] was 14 s and the LIVER [5] was 9.3 g. The BUN [5] was 17 mg/dL, the Ca [5] was 10.8 mg/dL and the Cl [5] was 105.4 meq/L. The PT [6] was 14.1 s, the BUN [6] was 11.4 mg/dL and the Ca [6] was 10.8 mg/dL. For the same compound, the Cl [6] was 106.2 meq/L, the PT [7] was 14 s and the BUN [7] was 7.8 mg/dL. It also gave a Cl [7] of 108 meq/L, a PT [8] of 14.2 s and a BUN [8] of 8 mg/dL. It also gave a Ca [8] of 10.3 mg/dL, a Cl [8] of 107.4 meq/L and a Cl (300 mg/kg, 24 h, dose level Middle) of 106.2 meq/L.
